Km and Vmax data for one substance are collected here from publication PMC9599641, “TNP Analogues Inhibit the Virulence Promoting IP3-4 Kinase Arg1 in the Fungal Pathogen Cryptococcus neoformans” (Biomolecules, 2022).

Broadly, the Km is the substrate concentration at which the rate is half of its maximum.

This series concerns Nc1ncnc2c1ncn2[C@@H]1O[C@H](COP(=O)(O)OP(=O)(O)OP(=O)(O)O)[C@@H](O)[C@H]1O. Kind of series: purified protein, by the assay type. The note with it: other: 200 µM IP3, ATP 25–400 µM; mean ± SEM; pH 6.8.

Take CnArg1 (Cryptococcus neoformans H99): the Km is on record as 300 ± 67 µM and the Vmax is reported as 12 ± 1.5 µmol ATP/mg protein/min.
